From PMC4216211 (Journal of Medicinal Chemistry, 2014)

Chains of the proteins cited; added tags and fusions are not shown.
UniProt P30536, whole entry: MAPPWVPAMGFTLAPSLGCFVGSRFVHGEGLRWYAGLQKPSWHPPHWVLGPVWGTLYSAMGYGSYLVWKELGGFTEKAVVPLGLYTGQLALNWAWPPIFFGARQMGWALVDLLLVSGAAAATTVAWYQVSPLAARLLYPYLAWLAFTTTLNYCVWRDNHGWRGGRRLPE

Target: human leukocyte LAB TSPO (Homo sapiens, UniProt P30536)
Assay: Ligand binding affinity to human leukocyte LAB TSPO

`CCC(C)N(C)C(=O)c1cc2ccccc2c(-c2ccccc2Cl)n1` (stereo not shown) [compound 1, 1-(2-chlorophenyl)-N-methyl-N-(1-methylpropyl)-3-isoquinolinecarboxamide, reference compound] gave a Ki of 4 ± 1 nM.
